Laboratory results reported in PMC5984341.

Amino acid sequences for entries named in this document (tags omitted). Chains listed by the source or under a name are the forms on record and can include a tag or linker.
UniProt P10636, other isoform, or with tags, fused parts or gaps C291A | C322A | C291A C322A: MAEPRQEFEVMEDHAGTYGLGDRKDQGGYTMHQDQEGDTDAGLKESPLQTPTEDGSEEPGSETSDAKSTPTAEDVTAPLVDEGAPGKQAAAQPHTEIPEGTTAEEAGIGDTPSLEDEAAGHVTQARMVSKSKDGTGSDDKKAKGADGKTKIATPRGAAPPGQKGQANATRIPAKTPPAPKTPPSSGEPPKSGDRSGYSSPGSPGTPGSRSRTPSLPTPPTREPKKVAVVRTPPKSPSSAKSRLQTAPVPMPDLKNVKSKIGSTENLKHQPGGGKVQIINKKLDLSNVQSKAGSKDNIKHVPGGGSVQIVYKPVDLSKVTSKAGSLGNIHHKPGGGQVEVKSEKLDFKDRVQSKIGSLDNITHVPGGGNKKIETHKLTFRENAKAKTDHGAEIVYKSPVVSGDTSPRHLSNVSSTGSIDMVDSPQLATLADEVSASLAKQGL

Tests used:
[1] = target: cognate tau peptide of CBTAU-27.1 (not named for ITC and Octet) (human); assay: ITC; in solution, MicroCal Auto-iTC200; peptide ~10-35 μM, antibody 130-205 μM; fit to a single set of sites, antibody:tau peptide = 1:2
[2] = target: recombinant tau (rtau), human tau-441 isoform (2N4R) with C291A and C322A (human) (UniProt P10636); assay: SEC-MALS; 15 μM monomer rtau incubated with dmCBTAU-27.1 at rtau:IgG1 = 1:0.6 for 15 min, centrifuged 15 min at 20,000 g; TSKgel G3000SWxl, 150 mM sodium phosphate, 50 mM NaCl, pH 7.0
[3] = target: cognate tau peptide of CBTAU-28.1 (not named for ITC and Octet) (human); assay: ITC; in solution, MicroCal Auto-iTC200; peptide ~10-35 μM, antibody 130-205 μM; fit to a single set of sites, antibody:tau peptide = 1:2

fold improvement in affinity over CBTAU-27.1 [1] [fold]	stoichiometry N (tau monomers per antibody) [2]	fold improvement in affinity over CBTAU-28.1 [3] [fold]	Substance
> 50	2	–	dmCBTAU-27.1 (human IgG1), CBTAU-27.1 double mutant Ser27D to Tyr / Thr94 to Ile (antibody)
–	–	4	dmCBTAU-28.1 (human IgG1), CBTAU-28.1 double mutant Ser32 to Arg / Glu35 to Lys (antibody)
